Assay: Solubility
Details: water / completely aqueous solutions

## (mixed) ethanol and hydrocortisone ester (C21) of hyaluronic acid (HY) [HYC5]
  solubility in water / aqueous solutions (in words): insoluble in completely aqueous solutions
